Molecular target: Serotonin 2 (5-HT2) receptor (Rattus norvegicus, UniProt P30994+P08909+P14842)
Test: Compound was evaluated for its ability to displace 0.25 nM [125I](R)-DOI from binding sites in rat frontal cortex.
Assay type: tissue-based

By UniProt entry, the sequences of proteins in these tests, tags left out. Where a name states a change or a piece, a line headed by the entry shows the natural chain unless it says otherwise.
UniProt P30994: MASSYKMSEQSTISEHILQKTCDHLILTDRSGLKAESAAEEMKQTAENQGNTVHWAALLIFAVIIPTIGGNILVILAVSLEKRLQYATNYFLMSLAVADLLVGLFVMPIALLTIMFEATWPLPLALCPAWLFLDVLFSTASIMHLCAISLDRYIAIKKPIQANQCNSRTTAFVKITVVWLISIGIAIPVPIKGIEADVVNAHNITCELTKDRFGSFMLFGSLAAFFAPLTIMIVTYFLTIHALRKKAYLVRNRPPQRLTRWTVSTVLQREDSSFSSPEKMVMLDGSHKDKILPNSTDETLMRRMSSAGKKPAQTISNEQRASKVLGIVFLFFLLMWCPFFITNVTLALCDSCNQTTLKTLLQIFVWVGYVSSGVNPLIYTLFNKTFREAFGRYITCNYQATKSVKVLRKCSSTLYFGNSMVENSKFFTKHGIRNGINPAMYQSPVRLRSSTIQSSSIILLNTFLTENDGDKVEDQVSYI
UniProt P08909: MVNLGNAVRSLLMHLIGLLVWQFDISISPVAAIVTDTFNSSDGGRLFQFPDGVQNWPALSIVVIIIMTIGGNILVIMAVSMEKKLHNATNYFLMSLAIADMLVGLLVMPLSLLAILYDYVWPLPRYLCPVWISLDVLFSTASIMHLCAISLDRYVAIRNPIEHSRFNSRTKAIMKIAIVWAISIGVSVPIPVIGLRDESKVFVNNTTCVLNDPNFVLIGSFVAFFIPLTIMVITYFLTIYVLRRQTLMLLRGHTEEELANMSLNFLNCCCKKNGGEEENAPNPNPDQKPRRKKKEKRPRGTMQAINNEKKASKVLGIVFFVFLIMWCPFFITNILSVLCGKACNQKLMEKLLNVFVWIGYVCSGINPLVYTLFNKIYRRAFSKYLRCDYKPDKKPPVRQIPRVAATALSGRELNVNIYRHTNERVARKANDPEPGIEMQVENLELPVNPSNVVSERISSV
UniProt P14842: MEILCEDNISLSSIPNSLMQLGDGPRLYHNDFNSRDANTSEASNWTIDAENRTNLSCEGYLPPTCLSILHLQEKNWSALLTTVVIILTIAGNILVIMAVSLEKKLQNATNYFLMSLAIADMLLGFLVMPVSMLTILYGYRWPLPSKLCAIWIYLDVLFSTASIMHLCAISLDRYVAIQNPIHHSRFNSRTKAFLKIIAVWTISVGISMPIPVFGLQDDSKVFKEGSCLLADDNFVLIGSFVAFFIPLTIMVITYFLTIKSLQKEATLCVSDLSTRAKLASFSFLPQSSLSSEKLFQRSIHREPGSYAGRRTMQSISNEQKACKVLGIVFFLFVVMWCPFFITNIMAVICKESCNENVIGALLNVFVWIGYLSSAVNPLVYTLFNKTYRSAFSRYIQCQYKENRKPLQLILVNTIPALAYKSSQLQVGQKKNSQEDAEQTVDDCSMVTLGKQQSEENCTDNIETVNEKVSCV

COc1ccc(OC)c(CC(C)N)c1 (stereo unspecified)
Ki: 0.465 µM

— ChEMBL document CHEMBL1125731, “2,3-Dihydrobenzofuran analogues of hallucinogenic phenethylamines” (J Med Chem, 1991)
